The results in this text go back to patent US20180220653A1, “Methods for Identifying Compounds that Directly Bind to Insect Transient Receptor Potential Channels” (priority 2015, published 2018).

Assay [1] concerns the target T1, Nan-Iav complexes (Drosophila melanogaster, UniProt M9PI57+Q9W3W0).
T1 sequence (M9PI57 1-834): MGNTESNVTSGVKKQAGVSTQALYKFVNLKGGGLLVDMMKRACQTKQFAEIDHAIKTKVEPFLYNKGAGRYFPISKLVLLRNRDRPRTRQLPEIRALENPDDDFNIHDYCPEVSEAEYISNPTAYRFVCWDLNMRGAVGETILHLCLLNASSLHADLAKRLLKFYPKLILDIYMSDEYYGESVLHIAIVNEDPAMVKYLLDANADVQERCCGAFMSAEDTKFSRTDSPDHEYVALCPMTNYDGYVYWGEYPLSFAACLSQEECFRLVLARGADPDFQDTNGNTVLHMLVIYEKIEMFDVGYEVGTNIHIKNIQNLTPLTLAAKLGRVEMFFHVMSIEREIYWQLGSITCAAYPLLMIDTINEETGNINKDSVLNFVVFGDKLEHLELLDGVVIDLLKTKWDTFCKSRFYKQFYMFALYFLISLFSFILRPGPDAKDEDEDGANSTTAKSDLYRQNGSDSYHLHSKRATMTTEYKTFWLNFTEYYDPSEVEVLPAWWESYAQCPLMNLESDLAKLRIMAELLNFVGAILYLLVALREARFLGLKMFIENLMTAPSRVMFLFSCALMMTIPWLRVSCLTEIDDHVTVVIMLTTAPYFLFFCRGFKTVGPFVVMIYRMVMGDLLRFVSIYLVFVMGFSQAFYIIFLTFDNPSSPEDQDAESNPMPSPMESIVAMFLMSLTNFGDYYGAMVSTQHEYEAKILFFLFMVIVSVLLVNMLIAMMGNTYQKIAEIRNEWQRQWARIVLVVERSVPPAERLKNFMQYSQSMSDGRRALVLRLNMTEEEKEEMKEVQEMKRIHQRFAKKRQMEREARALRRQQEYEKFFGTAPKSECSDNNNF
T1 sequence (Q9W3W0 1-1123): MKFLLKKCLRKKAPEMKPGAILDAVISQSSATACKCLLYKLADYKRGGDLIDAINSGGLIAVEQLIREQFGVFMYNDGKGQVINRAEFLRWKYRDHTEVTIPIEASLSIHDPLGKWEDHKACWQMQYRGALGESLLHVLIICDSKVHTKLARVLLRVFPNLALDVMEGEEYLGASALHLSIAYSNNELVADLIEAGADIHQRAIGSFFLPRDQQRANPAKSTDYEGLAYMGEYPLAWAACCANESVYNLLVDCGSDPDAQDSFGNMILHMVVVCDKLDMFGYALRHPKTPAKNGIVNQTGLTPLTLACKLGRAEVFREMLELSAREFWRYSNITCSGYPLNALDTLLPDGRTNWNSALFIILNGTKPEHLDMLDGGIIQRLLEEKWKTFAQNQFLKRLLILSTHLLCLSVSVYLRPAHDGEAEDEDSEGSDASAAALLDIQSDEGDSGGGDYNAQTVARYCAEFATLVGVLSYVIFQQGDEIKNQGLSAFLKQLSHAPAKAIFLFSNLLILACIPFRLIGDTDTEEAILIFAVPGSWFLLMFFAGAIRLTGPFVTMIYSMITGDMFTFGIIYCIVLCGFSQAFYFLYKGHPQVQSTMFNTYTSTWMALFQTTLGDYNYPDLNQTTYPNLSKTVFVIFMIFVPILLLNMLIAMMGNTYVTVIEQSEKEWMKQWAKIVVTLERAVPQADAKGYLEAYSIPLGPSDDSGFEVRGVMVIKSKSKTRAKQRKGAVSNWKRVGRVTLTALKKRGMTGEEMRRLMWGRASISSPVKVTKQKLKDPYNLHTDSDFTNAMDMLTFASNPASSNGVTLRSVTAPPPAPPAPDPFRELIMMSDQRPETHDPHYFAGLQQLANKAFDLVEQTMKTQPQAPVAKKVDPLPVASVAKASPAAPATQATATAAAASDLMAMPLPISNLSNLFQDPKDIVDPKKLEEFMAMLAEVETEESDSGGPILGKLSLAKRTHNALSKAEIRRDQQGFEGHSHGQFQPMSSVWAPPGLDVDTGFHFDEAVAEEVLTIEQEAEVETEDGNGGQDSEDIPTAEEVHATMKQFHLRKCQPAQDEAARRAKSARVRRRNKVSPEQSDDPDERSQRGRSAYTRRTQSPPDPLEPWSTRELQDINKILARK
Particulars: for displacement of [3H]-Afidopyropen from the high affinity sites / pKi: 0.05 nM [3H]-Afidopyropen; for pKi: read-out: Ki, displacement assay, high affinity sites, FIG. 9A. (In a radioligand displacement assay an active substance lowers the binding of a labelled ligand.)

The target of assay [2] is T1, Nan-Iav complexes. Description: biochemical.
[3] abbreviates: displacement of [3H]-Afidopyropen from high affinity sites.

SMILES strings stand for the structures. pKi: −log10 of the molar value. Like-named read-outs stand apart in the source and are kept apart here.

With `C[C@]1(COC(=O)C2CC2)[C@@H]2C[C@H](O)[C@@]3(C)Oc4cc(-c5cccnc5)oc(=O)c4[C@H](O)[C@@H]3[C@@]2(C)CC[C@@H]1OC(=O)C1CC1` [afidopyropen], in assay [1], the “displacement of [3H]-Afidopyropen from the high affinity sites” value is “completely displaced” and the pKi (usually the negative decadic logarithm of the Ki, by convention in mol/L) is 10.22. Also, in assay [1] (setting [3]), the Hill values entry is “≈ −1”.
In the same order, the values of `O=C1Nc2ccc(C(F)(C(F)(F)F)C(F)(F)F)cc2CN1NCc1cccnc1` [N-deacetylated pyrifluquinazon] are “completely displaced”, 8.05 and “≈ −1”.
In assay [2], `CC1=NNC(=O)N(/N=C/c2cccnc2)C1` [pymetrozine] showed a negative-log Ki (pKi) of 7.30. For the same molecule, in assay [1], the Hill values result is “≈ −1” and the “displacement of [3H]-Afidopyropen from the high affinity sites” value is “completely displaced”.
